Target: Kappa-type opioid receptor (Homo sapiens, UniProt P41145)
Assay: Binding Assay
Settings: pH 7.4

Going from `CO[C@]12CC[C@@]3(C[C@@H]1CNC(=O)[C@H](C)N)[C@H]1Cc4ccc(O)c5c4[C@@]3(CCN1CC1CC1)[C@H]2O5` to `CO[C@]12CC[C@@]3(C[C@@H]1CNC(=O)[C@@H](N)CC(C)C)[C@H]1Cc4ccc(O)c5c4[C@@]3(CCN1CC1CC1)[C@H]2O5`, the Ki falls from 0.14 nM to 0.06 nM (2.3-fold).

First: COC12CC[C@@]3(C[C@@H]1CNC(=O)CCc1nnn[nH]1)[C@H]1Cc4ccc(O)c5c4[C@@]3(CCN1CC1CC1)[C@H]2O5
Second: COC12CC[C@@]3(C[C@@H]1CNC(=O)CCC(=O)O)[C@H]1Cc4ccc(O)c5c4[C@@]3(CCN1CC1CC1)[C@H]2O5
The Ki of the first is 2.3-fold lower: 1.15 nM for the first, 2.62 nM for the second. The first binds more tightly here.

Going from `CO[C@]12CC[C@@]3(C[C@@H]1CNC(=O)[C@H](CC(=O)O)NC(C)=O)[C@H]1Cc4ccc(O)c5c4[C@@]3(CCN1CC1CC1)[C@H]2O5` to `CO[C@]12CC[C@@]3(C[C@@H]1CNC(=O)[C@H](CC(N)=O)NC(C)=O)[C@H]1Cc4ccc(O)c5c4[C@@]3(CCN1CC1CC1)[C@H]2O5`, the Ki falls from 7.1 nM to 0.62 nM (11-fold).

Going from `CO[C@]12CC[C@@]3(C[C@@H]1CNC(=O)[C@@H]1CCCN1C(C)=O)[C@H]1Cc4ccc(O)c5c4[C@@]3(CCN1CC1CC1)[C@H]2O5` to `CO[C@]12CC[C@@]3(C[C@@H]1CNC(=O)[C@H](C)NC(C)=O)[C@H]1Cc4ccc(O)c5c4[C@@]3(CCN1CC1CC1)[C@H]2O5`, the Ki rises from 0.16 nM to 0.35 nM (2.2-fold). The first binds more tightly here.

`CO[C@]12CC[C@@]3(C[C@@H]1CNC(=O)[C@H](CC(C)C)NC(C)=O)[C@H]1Cc4ccc(O)c5c4[C@@]3(CCN1CC1CC1)[C@H]2O5` and `CC[C@H](C)[C@H](NC(C)=O)C(=O)NC[C@H]1C[C@@]23CC[C@]1(OC)[C@@H]1Oc4c(O)ccc5c4[C@@]12CCN(CC1CC1)[C@@H]3C5` are within 1.5-fold of each other in Ki: 0.35 nM for the first, 0.4 nM for the second.

`CO[C@]12CC[C@@]3(C[C@@H]1CNC(=O)[C@H](Cc1c[nH]cn1)NC(C)=O)[C@H]1Cc4ccc(O)c5c4[C@@]3(CCN1CC1CC1)[C@H]2O5` gave a Ki of 0.95 nM.

Target: Mu-type opioid receptor (Homo sapiens, UniProt P35372)
Assay: Binding Assay
Settings: pH 7.4

Work on `COc1ccc2c3c1O[C@H]1[C@@]4(OC)CC[C@@]5(C[C@@H]4CNC(=O)[C@H](C)N)[C@@H](C2)N(CC2CC2)CC[C@]315` yielded a Ki of 190 nM.
